## Cyclic peptide permeability, from CycPeptMPDB

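Lipid, pH, incubation time, direction and concentration are not recorded in the data file. Other peptides of the study may be missing here. Entries at the database's floor value (log10 P of -10) are not listed.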

PAMPA measures passive passage through an artificial lipid membrane. P is given in units of 10^-6 cm/s (from log10 values with two decimals); larger means faster passage.

| PAMPA (10^-6 cm/s) | SMILES |
|---|---|
| 4.3 | CC(C)C[C@@H]1C(=O)N[C@@H](Cc2ccccc2)CC(=O)N2CCC[C@H]2C(=O)N(C)[C@H](CC(C)C)C(=O)N[C@@H](Cc2ccccc2)C(=O)N2CCC[C@@H]2C(=O)N[C@@H](C)C(=O)N1C |
| 4.5 | CC(C)C[C@@H]1NC(=O)[C@H](C)N(C)C(=O)[C@H]2CCCN2C(=O)[C@H](Cc2ccccc2)NC(=O)[C@@H](CC(C)C)NC(=O)[C@@H]2CCCN2C(=O)[C@@H](CC(C)C)N(C)C1=O |
| 7.8 | CC(C)C[C@@H]1C(=O)N(C)[C@@H](CC(C)C)C(=O)N2CCC[C@@H]2C(=O)N(C)[C@@H](CC(C)C)C(=O)N[C@@H](Cc2ccccc2)C(=O)N2CCC[C@H]2C(=O)N[C@@H](C)C(=O)N1C |
| 0.98 | CC(C)C[C@@H]1NC(=O)[C@@H]2CCCN2C(=O)[C@@H](CC(C)C)NC(=O)[C@@H](CC(C)C)N(C)C(=O)[C@H](C)N(C)C(=O)[C@H](Cc2ccccc2)NC1=O |
| 1.7 | CC(C)C[C@H]1C(=O)N[C@@H](Cc2ccccc2)C(=O)N2CCC[C@@H]2C(=O)N[C@@H](Cc2ccccc2)CC(=O)N(Cc2ccccc2)CC(=O)N[C@@H](Cc2ccccc2)CC(=O)N2CCC[C@H]2C(=O)N1C |
| 2 | CC(C)C[C@@H]1NC(=O)[C@@H](CC(C)C)NC(=O)[C@@H](C)N(C)C(=O)[C@H](Cc2ccccc2)NC(=O)CN(Cc2ccccc2)C(=O)[C@@H]2CCCN2C1=O |
| 0.6 | CCCN1CC(=O)N(C)[C@H](CC(C)C)C(=O)N(C)[C@@H](CC(C)C)C(=O)N2CCC[C@H]2C(=O)N[C@@H](CC(C)C)C(=O)N[C@@H](Cc2ccccc2)C(=O)N2CCC[C@H]2C1=O |
| 3.9 | CC(C)C[C@@H]1NC(=O)[C@@H](CC(C)C)NC(=O)[C@@H](C)N(C)C(=O)[C@@H]2CCCN2C(=O)[C@H](Cc2ccccc2)NC(=O)[C@@H](CC(C)C)N(C)C(=O)[C@H]2CCCN2C1=O |
| 9.8 | CC(C)C[C@@H]1C(=O)N[C@@H](Cc2ccccc2)C(=O)N2CCC[C@@H]2C(=O)N[C@H](C)C(=O)N(C)[C@H](CC(C)C)C(=O)N(C)[C@@H](CC(C)C)C(=O)N2CCC[C@@H]2C(=O)N1C |
| 0.32 | CC(C)C[C@@H]1NC(=O)[C@H]2CCCN2C(=O)[C@@H](CC(C)C)N(C)C(=O)[C@@H](CC(C)C)NC(=O)[C@H](C)N(C)C(=O)[C@H]2CCCN2C(=O)[C@H](Cc2ccccc2)NC1=O |
| 0.33 | CCCN1CC(=O)N[C@@H](CC(C)C)C(=O)N[C@H](CC(C)C)C(=O)N2CCC[C@@H]2C(=O)N[C@@H](CC(C)C)C(=O)N[C@@H](Cc2ccccc2)C(=O)N2CCC[C@H]2C1=O |
| 1.3 | CCCN1CC(=O)N(C)[C@@H](CC(C)C)C(=O)N[C@H](CC(C)C)C(=O)N2CCC[C@H]2C(=O)N[C@H](CC(C)C)C(=O)N[C@@H](Cc2ccccc2)C(=O)N2CCC[C@H]2C1=O |
| 1.6 | CC(C)C[C@H]1NC(=O)[C@H](C)NC(=O)[C@H]2CCCN2C(=O)[C@H](Cc2ccccc2)NC(=O)CN(Cc2ccccc2)C(=O)[C@H]2CCCN2C(=O)CN(Cc2ccccc2)C1=O |
| 1.2 | CC(C)C[C@@H]1NC(=O)[C@H](C)NC(=O)[C@H]2CCCN2C(=O)[C@H](Cc2ccccc2)NC(=O)[C@H](CC(C)C)N(C)C(=O)[C@@H]2CCCN2C(=O)CN(Cc2ccccc2)C1=O |
| 1.6 | CC(C)C[C@@H]1C(=O)N[C@@H](Cc2ccccc2)C(=O)N2CCC[C@@H]2C(=O)N(C)[C@H](C)C(=O)N(C)[C@@H](CC(C)C)C(=O)N[C@@H](Cc2ccccc2)CC(=O)N2CCC[C@@H]2C(=O)N1C |
| 4.3 | CC(C)C[C@H]1C(=O)N[C@@H](Cc2ccccc2)C(=O)N2CCC[C@H]2C(=O)N[C@H](C)C(=O)N(C)[C@@H](CC(C)C)C(=O)N(C)[C@@H](CC(C)C)C(=O)N2CCC[C@@H]2C(=O)N1C |
| 3.8 | CC(C)C[C@H]1C(=O)N(C)[C@@H](CC(C)C)C(=O)N2CCC[C@H]2C(=O)N(C)[C@@H](CC(C)C)C(=O)N[C@@H](Cc2ccccc2)C(=O)N2CCC[C@H]2C(=O)N[C@@H](Cc2ccccc2)CC(=O)N1C |
| 0.95 | CC(C)C[C@@H]1NC(=O)[C@@H](C)N(C)C(=O)[C@H]2CCCN2C(=O)[C@H](Cc2ccccc2)NC(=O)CN(Cc2ccccc2)C(=O)[C@H]2CCCN2C(=O)[C@@H](CC(C)C)NC1=O |
| 1.1 | CC(C)C[C@@H]1NC(=O)[C@@H](C)N(C)C(=O)[C@@H]2CCCN2C(=O)[C@H](Cc2ccccc2)NC(=O)[C@@H](CC(C)C)NC(=O)[C@@H]2CCCN2C(=O)CN(Cc2ccccc2)C1=O |
| 2.8 | CC(C)C[C@H]1NC(=O)[C@H](C)N(C)C(=O)[C@H](Cc2ccccc2)NC(=O)[C@H](CC(C)C)N(C)C(=O)[C@@H]2CCCN2C(=O)C[C@H](Cc2ccccc2)NC1=O |
| 2.6 | CCCN1CC(=O)N[C@@H](CC(C)C)C(=O)N[C@H](CC(C)C)C(=O)N2CCC[C@H]2C(=O)N(Cc2ccccc2)CC(=O)N[C@@H](Cc2ccccc2)C1=O |
| 2.6 | CC(C)C[C@@H]1NC(=O)[C@@H]2CCCN2C(=O)[C@H](CC(C)C)N(C)C(=O)[C@H](CC(C)C)NC(=O)C[C@H](Cc2ccccc2)NC(=O)[C@H](Cc2ccccc2)NC1=O |
| 9.1 | CC(C)C[C@@H]1C(=O)N[C@@H](Cc2ccccc2)CC(=O)N2CCC[C@H]2C(=O)N(C)[C@@H](CC(C)C)C(=O)N[C@@H](Cc2ccccc2)C(=O)N2CCC[C@@H]2C(=O)N[C@H](C)C(=O)N1C |

Repeated from above, the 3 entries with the highest PAMPA:

| SMILES | PAMPA (10^-6 cm/s) |
|---|---|
| CC(C)C[C@@H]1C(=O)N[C@@H](Cc2ccccc2)C(=O)N2CCC[C@@H]2C(=O)N[C@H](C)C(=O)N(C)[C@H](CC(C)C)C(=O)N(C)[C@@H](CC(C)C)C(=O)N2CCC[C@@H]2C(=O)N1C | 9.8 |
| CC(C)C[C@@H]1C(=O)N[C@@H](Cc2ccccc2)CC(=O)N2CCC[C@H]2C(=O)N(C)[C@@H](CC(C)C)C(=O)N[C@@H](Cc2ccccc2)C(=O)N2CCC[C@@H]2C(=O)N[C@H](C)C(=O)N1C | 9.1 |
| CC(C)C[C@@H]1C(=O)N(C)[C@@H](CC(C)C)C(=O)N2CCC[C@@H]2C(=O)N(C)[C@@H](CC(C)C)C(=O)N[C@@H](Cc2ccccc2)C(=O)N2CCC[C@H]2C(=O)N[C@@H](C)C(=O)N1C | 7.8 |

Source: CycPeptMPDB (Li et al. 2023), which took these values from Townsend et al. 2020, doi:10.26434/chemrxiv.13335941.v1.